According to ChEMBL document CHEMBL3526103, “Prediction of in vivo hepatic clearance and half-life of drug candidates in human using chimeric mice with humanized liver” (Drug Metab Dispos, 2012):

Assay: clinical
Conditions: human, blood and plasma, iv

Structure (SMILES): O=C(O)Cc1ccccc1Nc1c(Cl)cccc1Cl [DICLOFENAC]
- blood plasma ratio: 0.55
